We go through 1 compound from ChEMBL document CHEMBL5154888, “Design, synthesis, and in vitro and in vivo characterization of new memantine analogs for Alzheimer's disease” (Eur J Med Chem, 2022).

By UniProt entry, the sequences of proteins in these tests, tags left out.
UniProt Q00959, whole entry: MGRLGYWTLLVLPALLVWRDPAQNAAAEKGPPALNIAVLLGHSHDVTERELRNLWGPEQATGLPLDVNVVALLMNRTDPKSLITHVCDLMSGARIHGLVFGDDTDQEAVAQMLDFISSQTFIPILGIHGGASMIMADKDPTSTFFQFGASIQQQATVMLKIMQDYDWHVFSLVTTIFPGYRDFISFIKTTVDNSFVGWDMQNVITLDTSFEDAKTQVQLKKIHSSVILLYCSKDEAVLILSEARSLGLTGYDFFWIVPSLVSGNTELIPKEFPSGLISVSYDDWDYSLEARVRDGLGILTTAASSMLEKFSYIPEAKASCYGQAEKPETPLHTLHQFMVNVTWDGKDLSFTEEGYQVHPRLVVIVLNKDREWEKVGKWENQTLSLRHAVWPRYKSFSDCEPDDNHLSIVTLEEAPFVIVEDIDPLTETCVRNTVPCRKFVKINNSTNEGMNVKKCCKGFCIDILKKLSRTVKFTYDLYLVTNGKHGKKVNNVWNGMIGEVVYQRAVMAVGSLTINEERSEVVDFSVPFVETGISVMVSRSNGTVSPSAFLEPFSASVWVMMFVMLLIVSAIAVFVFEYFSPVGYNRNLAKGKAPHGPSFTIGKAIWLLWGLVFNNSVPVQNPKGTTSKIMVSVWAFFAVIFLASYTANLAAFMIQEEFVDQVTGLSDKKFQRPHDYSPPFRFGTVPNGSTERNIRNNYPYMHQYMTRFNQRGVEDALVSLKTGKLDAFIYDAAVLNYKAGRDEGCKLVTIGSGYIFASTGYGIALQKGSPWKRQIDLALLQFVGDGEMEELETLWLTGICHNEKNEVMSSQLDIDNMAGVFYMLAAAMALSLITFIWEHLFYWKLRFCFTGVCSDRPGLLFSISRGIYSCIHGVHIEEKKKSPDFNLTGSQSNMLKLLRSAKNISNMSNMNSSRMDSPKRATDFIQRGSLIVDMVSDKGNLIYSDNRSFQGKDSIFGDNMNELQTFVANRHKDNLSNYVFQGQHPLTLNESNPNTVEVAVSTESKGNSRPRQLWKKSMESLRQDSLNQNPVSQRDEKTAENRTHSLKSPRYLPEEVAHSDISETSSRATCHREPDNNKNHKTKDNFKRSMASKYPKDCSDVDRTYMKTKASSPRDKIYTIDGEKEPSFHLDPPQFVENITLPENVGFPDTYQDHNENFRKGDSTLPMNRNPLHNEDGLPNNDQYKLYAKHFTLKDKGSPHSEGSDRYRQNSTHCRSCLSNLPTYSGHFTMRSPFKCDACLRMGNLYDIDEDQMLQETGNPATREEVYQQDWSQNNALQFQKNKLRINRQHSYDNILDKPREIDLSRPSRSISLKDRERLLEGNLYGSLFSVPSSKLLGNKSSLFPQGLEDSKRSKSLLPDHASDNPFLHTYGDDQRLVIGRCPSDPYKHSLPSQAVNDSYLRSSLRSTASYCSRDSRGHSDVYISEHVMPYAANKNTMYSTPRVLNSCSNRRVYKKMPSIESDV

Molecules are shown by their SMILES.

In the assay the target is Glutamate NMDA receptor; Grin1/Grin2a (Rattus norvegicus, UniProt P35439+Q00959). The assay can be described thus: Inhibition of eGFP-tagged rat GluN1-1a/GluN2A transfected in human tsA201 cells assessed as inhibition glutamate-induced current measured at -65 mV holding potential applied for 10 secs by whole-cell patch-clamp method. Type of assay: cell-based. Background: In patch-clamp work, channel activity is measured electrically.

One may read the IC50 as the concentration needed to halve the response being measured. For `CC12CC3CC(C)(C1)CC(N)(C3)C2` [MEMANTINE], the IC50 was 1 µM.
